The text below walks through data of PubChem BioAssay (NCI).

Only a part is listed here, and it is no random draw. Some salts or complexes appear as unconnected parts, following the source record. Where a structure was tested more than once in an assay, its records may differ in their call. The source made the active and inactive calls. Rule as the data show it: active = growth inhibition above about 70%; inactive = the rest.

The assay is described as follows: NCI Yeast Anticancer Drug Screen. Data for the rad52 strain (AID 147).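 Also: 0% = growth of vehicle-treated control cultures.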 Particulars: S. cerevisiae rad52 mutant growth inhibition, hits give high values. As for the experimental part: Growth inhibition of yeast strains with defined genetic alterations is measured as a screen for potential anti-cancer activity. Selected strains with alterations in DNA damage repair or cell cycle control were exposed to compounds and growth inhibition was measured relative to vehicle treated controls. The strain used in this assay is rad52

Regarding `Nc1ccccc1.O=[N+]([O-])c1cc([N+](=O)[O-])cc([N+](=O)[O-])c1`, the growth inhibition runs as follows: (at 1.2 µM) inactive: 0%; (at 3.7 µM) inactive: 3%; (at 11.0 µM) inactive: 31%; (at 33.0 µM) active: 98%; (at 100.0 µM) active: 99%.
Turning to `COc1ccccc1N.O=[N+]([O-])c1cc([N+](=O)[O-])cc([N+](=O)[O-])c1`, the growth inhibition is inactive: -3% (at 1.2 µM); inactive: 5% (at 3.7 µM); inactive: 41% (at 11.0 µM); active: 98% (at 33.0 µM); active: 99% (at 100.0 µM).
The matching figures for `Cc1cc2ccccc2cc1C.O=[N+]([O-])c1cc([N+](=O)[O-])cc([N+](=O)[O-])c1`: inactive: -1%, inactive: -1%, inactive: 2%, inactive: 11% and active: 91%.
As for `O=[N+]([O-])C(F)(COCC(O)CO)[N+](=O)[O-]` (stereo not given), the growth inhibition by setting is: (at 1.2 µM) inactive: -13%; (at 3.7 µM) inactive: 22%; (at 11.0 µM) inactive: 7%; (at 33.0 µM) inactive: 63%; (at 100.0 µM) active: 88%.
With `[Au].[C-]#N.[C-]#N`, the growth inhibition reads like this: (at 1.2 µM) inactive: 6%; (at 3.7 µM) inactive: 44%; (at 11.0 µM) inactive: 36%; (at 33.0 µM) inactive: 40%; (at 100.0 µM) inactive: 34%.
Take `Cc1ccc2ccc3ccc4ccccc4c3c2c1.O=C1c2cc([N+](=O)[O-])ccc2-c2c1cc([N+](=O)[O-])cc2[N+](=O)[O-]`: the growth inhibition (at 1.2 µM) was inactive: 2%; the growth inhibition (at 3.7 µM) was inactive: 4%; the growth inhibition (at 11.0 µM) was inactive: 10%; the growth inhibition (at 33.0 µM) is inactive: 16%; the growth inhibition (at 100.0 µM) is inactive: 22%.
